For 3 molecules, Activity results are on record in ChEMBL document CHEMBL1177649, “Synthesis and structure-affinity relationships of novel small molecule natural product derivatives capable of discriminating between serotonin 5-HT1A, 5-HT2A, 5-HT2C receptor subtypes” (Bioorg Med Chem, 2010).

Amino acid sequences for entries named in this document (tags omitted). A change or cut given only in a name is not applied to a line headed by its entry.
UniProt P08908, whole entry: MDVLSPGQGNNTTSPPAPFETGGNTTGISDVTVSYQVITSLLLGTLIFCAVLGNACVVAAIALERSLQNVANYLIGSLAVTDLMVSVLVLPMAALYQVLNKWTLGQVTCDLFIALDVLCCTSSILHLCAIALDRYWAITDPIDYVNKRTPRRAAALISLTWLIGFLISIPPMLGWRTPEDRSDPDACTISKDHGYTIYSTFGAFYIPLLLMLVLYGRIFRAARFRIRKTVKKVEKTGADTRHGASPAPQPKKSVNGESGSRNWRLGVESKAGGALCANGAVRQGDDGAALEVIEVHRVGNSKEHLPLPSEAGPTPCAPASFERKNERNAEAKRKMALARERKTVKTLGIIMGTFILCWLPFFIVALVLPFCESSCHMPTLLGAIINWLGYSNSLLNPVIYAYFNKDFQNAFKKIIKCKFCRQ
UniProt P28223, whole entry: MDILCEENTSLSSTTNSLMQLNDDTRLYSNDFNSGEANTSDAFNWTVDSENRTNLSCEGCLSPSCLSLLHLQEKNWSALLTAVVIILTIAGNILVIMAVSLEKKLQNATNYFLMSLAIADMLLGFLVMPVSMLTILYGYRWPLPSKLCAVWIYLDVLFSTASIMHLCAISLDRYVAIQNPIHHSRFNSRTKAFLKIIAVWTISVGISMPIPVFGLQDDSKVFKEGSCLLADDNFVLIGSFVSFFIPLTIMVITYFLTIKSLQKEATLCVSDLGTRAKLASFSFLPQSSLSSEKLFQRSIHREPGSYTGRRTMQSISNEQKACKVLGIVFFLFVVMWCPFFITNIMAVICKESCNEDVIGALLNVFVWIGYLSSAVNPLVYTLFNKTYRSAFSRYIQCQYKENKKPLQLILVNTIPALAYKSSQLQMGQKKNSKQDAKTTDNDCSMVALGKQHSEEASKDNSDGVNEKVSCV
UniProt P28335: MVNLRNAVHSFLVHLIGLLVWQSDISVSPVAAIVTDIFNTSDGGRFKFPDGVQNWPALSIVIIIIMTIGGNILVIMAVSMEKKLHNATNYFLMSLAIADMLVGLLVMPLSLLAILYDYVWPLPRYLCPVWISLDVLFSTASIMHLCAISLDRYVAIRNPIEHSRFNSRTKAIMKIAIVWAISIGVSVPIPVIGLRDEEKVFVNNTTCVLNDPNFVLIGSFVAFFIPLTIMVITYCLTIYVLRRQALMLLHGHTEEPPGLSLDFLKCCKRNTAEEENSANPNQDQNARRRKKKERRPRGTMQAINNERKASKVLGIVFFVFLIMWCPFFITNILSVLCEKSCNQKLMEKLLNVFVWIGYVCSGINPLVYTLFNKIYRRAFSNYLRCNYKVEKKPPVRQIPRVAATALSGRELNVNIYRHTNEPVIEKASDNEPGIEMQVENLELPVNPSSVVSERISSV

Molecules are shown by their SMILES.

Assay type in all cases: cell-based
Test [1] has as its target 5-hydroxytryptamine receptor 1A (Homo sapiens) (UniProt P08908). Briefly: Displacement of [3H]MPPF from human cloned 5HT1A receptor expressed in HEK293 cells at 3 uM after 90 mins by liquid scintillation counting. Put shortly:
(§1)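 Crude membranes from HEK293 cells stably expressing the receptor (G418 selection) in 50 mM Tris, pH 7.4. Radioligand targeted at ~500 pM. Compound added from a 3 mM DMSO stock diluted 1:1000. Nonspecific binding defined with 5 μM NAN-190 (5-HT1A) or 5 μM mianserin (5-HT2C). Incubated ≥90 min at 25°C, then filtered through PEI-soaked GF/C filters. Percent displacement of specific binding; triplicates, 3–4 experiments.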

The target of test [2] is 5-hydroxytryptamine receptor 2A (Homo sapiens, UniProt P28223). Description: Displacement of [3H]methylspiperone from human cloned 5HT2A receptor expressed in HEK293 cells at 3 uM after 90 mins by liquid scintillation counting. Put shortly: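 Crude membranes from HEK293 cells stably expressing the receptor (calcium phosphate transfection, G418-selected clones), in 50 mM Tris pH 7.4. Single-point screen: 3 mM DMSO stock diluted 1:1000. Radioligand targeted at about 500 pM, nonspecific binding defined by 5 μM mianserin. Incubated at least 90 min at 25°C, then filtered on PEI-soaked GF/C filters and washed cold. Percent specific displacement, triplicates, 3–4 experiments.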

For test [3], the target named is 5-hydroxytryptamine receptor 2C (Homo sapiens, UniProt P28335). Briefly: Displacement of [3H]mesulergine from human cloned 5HT2C receptor expressed in HEK293 cells at 3 uM after 90 mins by liquid scintillation counting. Put shortly: as §1

Turning to `CCN1C(=N)N(C)/C(=C/c2c[nH]c3cc(F)ccc23)C1=O`, the Activity in test [1] came out at 0%; in test [2], 86%; in test [3], 0%.

As to `CCN1C(=N)N(C)/C(=C\c2c[nH]c3ccccc23)C1=O`, the Activity in test [1] worked out at 0%; in test [2] it was 50%; in test [3], 0%.

Turning to `CN1C(=N)N(C)/C(=C/c2c[nH]c3ccccc23)C1=O` [APLYSINOPSIN], the Activity came to 0% in test [1], 47% in test [2] and 0% in test [3].
